Test results reported in US9512068B2, “Augmenting moieties for anti-inflammatory compounds” (dated 2016).
Marks after values point to notes of the source that are not given here.

Key:
[1] = system: TPA-induced inflammation; assay: Mouse Ear Vesicant Model (MEVM), TPA-induced inflammation; conditions: test compound 1.5 μmol on ear, 5 h, Irritant = vesicant-induced damage augmented, >100% = below untreated control
[2] = system: CEES-induced inflammation; assay: Mouse Ear Vesicant Model (MEVM), CEES-induced inflammation; conditions: test compound 1.5 μmol on ear, 5 h, Irritant = vesicant-induced damage augmented, >100% = below untreated control
[3] = system: TPA-induced and CEES-induced injuries; assay: MEVM inflammation suppression score (average of TPA-induced and CEES-induced injuries); conditions: standard dose

Row | Compound | % suppression of TPA-induced inflammation [1] | % suppression of CEES-induced inflammation [2] | also measured
1 | Cc1ccc(C(C)C)c(OC(=O)NCCCCN(CCCNC(=O)Oc2cc(C)ccc2C(C)C)C(=O)C(F)(F)F)c1 | 76% | – | –
2 | COc1ccc2cc([C@H](C)C(=O)N[C@H](C(=O)OCCC(C)(C)C)C(C)C)ccc2c1 | 22% | 52% | % suppression of CEES-induced inflammation ([2]; listed as 4596): 51%
3 | C=CC(C)(CCC=C(C)C)OC(=O)NCc1ccc(O)c(OC)c1 (stereo not drawn) | – | 92% | –
4 | COc1ccc2c(c1)c(CC(=O)O)c(C)n2C(=O)c1ccc(Cl)cc1 | – | – | inflammation suppression score [3]: 39%
5 | COc1cc(CCC(C)=O)ccc1OC(=O)NCCCCNCCCNC(=O)Oc1ccc(CCC(C)=O)cc1OC | 93% | 89% | –
6 | myrtenol | – | – | inflammation suppression score [3]: 6%
7 | C=CCc1ccc(OC(=O)NCCCCNCCCNC(=O)Oc2ccc(CC=C)cc2OC)c(OC)c1 | – | 73% | –
8 | CC(C)[C@H](NC(=O)Cc1ccccc1Nc1c(Cl)cccc1Cl)C(=O)OCCC(C)(C)C | 31% | 85** % | –
9 | CC(C)=CCC/C(C)=C/CO | – | – | inflammation suppression score [3]: 35%
10 | Cc1ccc(C(C)C)cc1OC(=O)NCCCCNCCCNC(=O)Oc1cc(C(C)C)ccc1C | 110% | 71% | % suppression of CEES-induced inflammation ([2]; trifluoroacetic acid salt): 83%; % suppression of TPA-induced inflammation ([1]; trifluoroacetic acid salt): 100%
11 | Cc1ccc(C(C)C)cc1O | 10% | 19% | –
12 | CC1CCC(C(C)C)C(O)C1 (stereo not drawn) | – | – | inflammation suppression score [3]: 38%
13 | COc1ccc2cc([C@H](C)C(=O)N[C@H](C(=O)O)C(C)C)ccc2c1 | – | 44% | –
14 | COc1cc(CNC(=O)[C@@H](NC(=O)OC/C=C(\C)CCC=C(C)C)C(C)C)ccc1O | 91% | – | –
15 | COc1cc(CNC(=O)[C@@H](NC(=O)C(C)c2ccc(CC(C)C)cc2)C(C)C)ccc1O (stereo partly drawn) | 110% | 94% | –
16 | COc1cc(CNC(=O)OC/C=C(\C)CCC=C(C)C)ccc1O | – | 64% | –
17 | CCOC(=O)[C@@H](NC(=O)[C@@H](C)c1ccc2cc(OC)ccc2c1)C(C)C | – | equipotent | –
18 | CN1C(C(=O)Nc2ccccn2)=C(O)c2ccccc2S1(=O)=O | – | – | inflammation suppression score [3]: 32%
19 | COc1ccc2cc(C(C)C(=O)O)ccc2c1 (stereo not drawn) | – | 11% | inflammation suppression score [3]: 31%
20 | COc1cc(CNC(=O)[C@@H](NC(=O)CC(C)O)C(C)C)ccc1O (stereo partly drawn) | – | 69% | –
21 | Cc1ccc(C(C)C)cc1OC(=O)NCCCNCCCCNCCCNC(=O)Oc1cc(C(C)C)ccc1C | 89% | 84% | –
22 | Cc1ccc(C(C)C)c(O)c1 | – | – | inflammation suppression score [3]: 14%
23 | CC(C)Cc1ccc(C(C)C(=O)N[C@@H](Cc2ccccc2)C(=O)OCCC(C)(C)C)cc1 (stereo partly drawn) | Irritant | Irritant | –

Row | Compound | % suppression of TPA-induced inflammation [1] | % suppression of CEES-induced inflammation [2] | also measured
24 | C=C(C)[C@@H]1CC=C(CO)CC1 | – | – | inflammation suppression score [3]: 43%
25 | CC(C)Cc1ccc(C(C)C(=O)N2CCC[C@H]2C(=O)OCCC(C)(C)C)cc1 (stereo partly drawn) | 35% | 24% | –
26 | CC(C)(C)CCOC(=O)[C@@H]1CCCN1C(=O)Cc1ccccc1Nc1c(Cl)cccc1Cl | 76*** % | 10% | –
27 | COc1ccc2c(c1)c(CC(=O)N[C@H](C(=O)OCCC(C)(C)C)C(C)C)c(C)n2C(=O)c1ccc(Cl)cc1 | 107*** % | 59% | –
28 | CC(C)(C)CCOC(=O)[C@H](Cc1ccccc1)NC(=O)Cc1ccccc1Nc1c(Cl)cccc1Cl | 90** % | 120** % | –
29 | C=C(C)[C@@H]1CC=C(COC(=O)NCc2ccc(O)c(OC)c2)CC1 | 76% | – | –
30 | CC(C)Cc1ccc(C(C)C(=O)NCC(=O)OCCC(C)(C)C)cc1 (stereo not drawn) | 18% | Irritant | –
31 | CCOC(=O)[C@@H](NC(=O)OCc1ccc(OC(C)=O)c(OC)c1)C(C)C | 93% | 72% | –
32 | COc1ccc2c(c1)c(CC(=O)N[C@@H](Cc1ccccc1)C(=O)OCCC(C)(C)C)c(C)n2C(=O)c1ccc(Cl)cc1 | 79** % | 62** % | –
33 | COc1cc(CO)ccc1O | – | – | inflammation suppression score [3]: 31%
34 | CC(C)Cc1ccc(C(C)C(=O)N[C@H](C(=O)OCCC(C)(C)C)C(C)C)cc1 (stereo partly drawn) | Irritant | 47% | –
35 | COc1ccc2cc([C@H](C)C(=O)N[C@@H](Cc3ccccc3)C(=O)OCCC(C)(C)C)ccc2c1 | 42** % | 83% | % suppression of CEES-induced inflammation ([2]; listed as 4572): 83** %
36 | COc1ccc2c(c1)c(CC(=O)NCC(=O)OCCC(C)(C)C)c(C)n2C(=O)c1ccc(Cl)cc1 | 55** % | 21% | –
37 | COc1ccc2c(c1)c(CC(=O)N1CCC[C@H]1C(=O)OCCC(C)(C)C)c(C)n2C(=O)c1ccc(Cl)cc1 | 68*** % | 25% | –
38 | COc1ccc2cc([C@H](C)C(=O)N3CCC[C@H]3C(=O)OCCC(C)(C)C)ccc2c1 | Irritant | 34% | –
39 | COc1ccc2cc([C@H](C)C(=O)NCC(=O)OCCC(C)(C)C)ccc2c1 | 54** % | 66** % | –
40 | Cc1ccc(C(C)C)c(OC(=O)NCCCCNCCCNC(=O)Oc2cc(C)ccc2C(C)C)c1 | 100% | – | –
41 | COc1cc(CN)ccc1O | – | – | inflammation suppression score [3]: 35%
42 | CC(C)(C)CCOC(=O)CNC(=O)Cc1ccccc1Nc1c(Cl)cccc1Cl | 45** % | Irritant | –
43 | CC(C)=CCCC(C)=CCCC(C)=CCO | – | – | inflammation suppression score [3]: 69%
44 | COc1cc(CNC(=O)[C@@H](NC(=O)OCc2ccc(OC(C)=O)c(OC)c2)C(C)C)ccc1O | 67% | – | –
45 | CC(C)(O)c1ccccc1 | – | – | inflammation suppression score [3]: 16%
